Target: T1, Ex-FABP (Gallus gallus, UniProt P21760)
T1 construct: made in house; host or cells: E. coli K-12 BW25113 ΔentB::kan (JW0587) (λDE3), pET21a, periplasmic secretion
Format: binding, chicken
Settings: ITC, TBS pH 7.4, 30°C, 5 μM lipocalin
Protocol: Experiments were carried out with a GE Healthcare Microcal VP-ITC microcalorimeter according to the manufacturer’s guidelines (Operating Instructions 28-9639-79 AA). The device consisted of a motorized injection syringe, in which the ligand was loaded, with two adiabatic cells set at 30 °C. The left cell was filled with the reference (TBS with 1.3% DMSO), whereas the right cell was filled with 5 μM lipocalin protein dissolved in the same buffer. […] Samples were degassed and pre-equilibrated at the desired temperature using a GE MicroCal ThermoVac degassing station before loading into the syringe, sample cell and reference cell.

Protein sequences, listed by entry. Tags and fused reporters are not part of them. Residues count along the entry.
UniProt P21760, 21-178: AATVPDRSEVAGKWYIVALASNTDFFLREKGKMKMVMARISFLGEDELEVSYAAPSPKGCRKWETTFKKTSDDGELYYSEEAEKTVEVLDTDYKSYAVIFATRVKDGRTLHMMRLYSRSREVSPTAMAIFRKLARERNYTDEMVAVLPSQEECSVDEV

salmochelin [apo-Sal (or DGE)]
Kd: Under threshold

Source: publication PMC7242566, “The Three Lipocalins of Egg-White: Only Ex-FABP Inhibits Siderophore-Dependent Iron Sequestration by Salmonella Enteritidis” (Frontiers in Microbiology, 2020)
